# Results taken from US9527887B2 (priority 2011, dated 2016).
# Sequences of proteins named here, by UniProt entry; tags and fusion partners are left off. Residues count along the entry.
# UniProt P25092, 24-1073 limits assumed: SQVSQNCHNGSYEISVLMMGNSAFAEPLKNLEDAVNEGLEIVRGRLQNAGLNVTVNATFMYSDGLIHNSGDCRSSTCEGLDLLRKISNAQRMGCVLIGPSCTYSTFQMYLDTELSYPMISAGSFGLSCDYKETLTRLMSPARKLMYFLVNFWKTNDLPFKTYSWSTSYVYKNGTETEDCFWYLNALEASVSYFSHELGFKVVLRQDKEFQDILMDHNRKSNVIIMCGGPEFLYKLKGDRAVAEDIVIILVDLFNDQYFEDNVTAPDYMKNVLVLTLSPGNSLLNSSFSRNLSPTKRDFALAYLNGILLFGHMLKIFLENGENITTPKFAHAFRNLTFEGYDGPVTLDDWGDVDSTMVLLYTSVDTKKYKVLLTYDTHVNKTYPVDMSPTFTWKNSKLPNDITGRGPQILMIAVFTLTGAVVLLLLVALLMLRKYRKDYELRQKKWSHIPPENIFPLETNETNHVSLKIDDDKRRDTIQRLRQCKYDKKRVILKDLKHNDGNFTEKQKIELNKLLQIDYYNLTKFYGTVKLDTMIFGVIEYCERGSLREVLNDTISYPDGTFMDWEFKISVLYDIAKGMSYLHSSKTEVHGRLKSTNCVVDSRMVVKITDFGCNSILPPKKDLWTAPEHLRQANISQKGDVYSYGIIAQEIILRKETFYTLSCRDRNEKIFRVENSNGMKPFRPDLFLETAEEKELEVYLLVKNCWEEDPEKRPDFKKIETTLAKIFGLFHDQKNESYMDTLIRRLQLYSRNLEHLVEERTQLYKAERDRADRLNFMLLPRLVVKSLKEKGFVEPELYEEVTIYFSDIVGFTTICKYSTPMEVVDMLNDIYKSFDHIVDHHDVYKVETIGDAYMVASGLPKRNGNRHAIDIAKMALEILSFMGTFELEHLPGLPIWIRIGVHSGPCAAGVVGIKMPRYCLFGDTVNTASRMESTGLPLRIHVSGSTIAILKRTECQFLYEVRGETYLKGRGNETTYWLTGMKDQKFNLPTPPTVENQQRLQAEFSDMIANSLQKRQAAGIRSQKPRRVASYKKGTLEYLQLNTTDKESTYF
# Biological target: GC-C (Homo sapiens, UniProt P25092)
# Type: cell-based
# Details: for EC50: 30 min at 37° C., IBMX
smiles,measurement,setting,value
"CC(C)C[C@@H]1NC(=O)[C@H](CCC(=O)O)NC(=O)[C@@H]2CSSC[C@@H]3NC(=O)[C@H](C)NC(=O)[C@@H]4CCCN4C(=O)[C@H](CC(N)=O)NC(=O)[C@H](CSSC[C@H](NC(=O)[C@H](CC(=O)O)NC(=O)[C@H](CC(=O)O)NC(=O)CCN)C(=O)N2)NC(=O)[C@H](CSSC[C@@H](C(=O)N[C@@H](Cc2ccc(O)cc2)C(=O)O)NC(=O)CNC(=O)[C@H]([C@@H](C)O)NC3=O)NC1=O [Peptide 15, dADDCCELCCNPACTGCY]",Ratio EC50 pH 8/EC50 pH 5,T84 cGMP assay,110.2
same,EC50,"pH 5 (DMEM+20 mM MES), read-out: cGMP response in T84 cells EC50 nM pH 5",6 nM
same,EC50,"pH 8 (DMEM+50 mM sodium bicarbonate), read-out: cGMP response in T84 cells EC50 nM pH 8",661 nM

# Read-outs that look alike come from different tables or passages of the source.
